Data taken from IntAct's records for PubMed 35512704.

B1: RAC-alpha serine/threonine-protein kinase (Homo sapiens), P31749 (parent)
chain: MSDVAIVKEGWLHKRGEYIKTWRPRYFLLKNDGTFIGYKERPQDVDQREAPLNNFSVAQCQLMKTERPRPNTFIIRCLQWTTVIERTFHVETPEEREEWTTAIQTVADGLKKQEEEEMDFRSGSPSDNSGAEEMEVSLAKPKHRVTMNEFEYLKLLGKGTFGKVILVKEKATGRYYAMKILKKEVIVAKDEVAHTLTENRVLQNSRHPFLTALKYSFQTHDRLCFVMEYANGGELFFHLSRERVFSEDRARFYGAEIVSALDYLHSEKNVVYRDLKLENLMLDKDGHIKITDFGLCKEGIKDGATMKTFCGTPEYLAPEVLEDNDYGRAVDWWGLGVVMYEMMCGRLPFYNQDHEKLFELILMEEIRFPRTLGPEAKSLLSGLLKKDPKQRLGGGSEDAKEIMQHRFFAGIVWQHVYEKKLSPPFKPQVTSETDTRYFDEEFTAQMITITPPDQDDSMECVDSERRPHFPQFSYSASGTA
partner: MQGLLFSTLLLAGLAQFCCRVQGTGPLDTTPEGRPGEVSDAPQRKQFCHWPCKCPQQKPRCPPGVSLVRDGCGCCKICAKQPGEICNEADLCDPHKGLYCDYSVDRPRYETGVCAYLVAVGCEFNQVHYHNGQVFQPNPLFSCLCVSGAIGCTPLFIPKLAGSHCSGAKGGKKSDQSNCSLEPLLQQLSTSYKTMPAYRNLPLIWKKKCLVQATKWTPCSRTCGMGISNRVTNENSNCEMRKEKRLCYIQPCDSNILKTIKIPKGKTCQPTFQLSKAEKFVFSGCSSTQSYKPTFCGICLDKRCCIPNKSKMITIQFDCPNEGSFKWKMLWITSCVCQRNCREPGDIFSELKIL
B2: RAC-alpha serine/threonine-protein kinase (Homo sapiens), P31749 (parent)
chain: B1 chain
partner: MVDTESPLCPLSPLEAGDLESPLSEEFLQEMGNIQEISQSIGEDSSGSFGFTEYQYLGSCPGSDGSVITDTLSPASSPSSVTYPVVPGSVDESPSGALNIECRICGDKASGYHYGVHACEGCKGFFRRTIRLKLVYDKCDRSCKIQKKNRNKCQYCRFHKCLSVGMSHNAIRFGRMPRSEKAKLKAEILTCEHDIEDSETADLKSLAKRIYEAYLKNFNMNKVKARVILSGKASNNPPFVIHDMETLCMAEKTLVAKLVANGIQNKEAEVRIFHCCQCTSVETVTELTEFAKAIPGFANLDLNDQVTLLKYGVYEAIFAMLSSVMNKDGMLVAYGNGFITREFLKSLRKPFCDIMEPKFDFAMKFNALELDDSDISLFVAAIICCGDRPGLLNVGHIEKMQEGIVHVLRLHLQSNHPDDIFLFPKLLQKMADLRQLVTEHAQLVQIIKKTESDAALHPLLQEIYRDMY
B3: RAC-alpha serine/threonine-protein kinase (Homo sapiens), P31749 (parent)
chain: B1 chain
partner: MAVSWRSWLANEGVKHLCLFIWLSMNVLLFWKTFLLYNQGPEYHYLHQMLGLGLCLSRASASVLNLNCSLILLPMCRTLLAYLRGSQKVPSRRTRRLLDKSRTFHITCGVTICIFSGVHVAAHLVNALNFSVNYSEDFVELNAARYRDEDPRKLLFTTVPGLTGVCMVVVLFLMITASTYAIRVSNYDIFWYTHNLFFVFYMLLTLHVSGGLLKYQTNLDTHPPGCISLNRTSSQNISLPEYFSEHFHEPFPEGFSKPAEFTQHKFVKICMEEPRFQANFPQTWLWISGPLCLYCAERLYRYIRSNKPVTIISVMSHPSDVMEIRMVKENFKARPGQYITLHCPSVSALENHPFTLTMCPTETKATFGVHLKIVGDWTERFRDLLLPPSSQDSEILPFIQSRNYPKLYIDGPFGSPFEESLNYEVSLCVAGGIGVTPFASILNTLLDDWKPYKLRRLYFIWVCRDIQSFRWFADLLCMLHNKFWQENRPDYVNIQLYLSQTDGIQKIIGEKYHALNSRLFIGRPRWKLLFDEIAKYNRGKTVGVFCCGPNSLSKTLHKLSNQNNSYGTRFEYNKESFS
B4: RAC-alpha serine/threonine-protein kinase (Homo sapiens), P31749 (parent)
chain: B1 chain
partner: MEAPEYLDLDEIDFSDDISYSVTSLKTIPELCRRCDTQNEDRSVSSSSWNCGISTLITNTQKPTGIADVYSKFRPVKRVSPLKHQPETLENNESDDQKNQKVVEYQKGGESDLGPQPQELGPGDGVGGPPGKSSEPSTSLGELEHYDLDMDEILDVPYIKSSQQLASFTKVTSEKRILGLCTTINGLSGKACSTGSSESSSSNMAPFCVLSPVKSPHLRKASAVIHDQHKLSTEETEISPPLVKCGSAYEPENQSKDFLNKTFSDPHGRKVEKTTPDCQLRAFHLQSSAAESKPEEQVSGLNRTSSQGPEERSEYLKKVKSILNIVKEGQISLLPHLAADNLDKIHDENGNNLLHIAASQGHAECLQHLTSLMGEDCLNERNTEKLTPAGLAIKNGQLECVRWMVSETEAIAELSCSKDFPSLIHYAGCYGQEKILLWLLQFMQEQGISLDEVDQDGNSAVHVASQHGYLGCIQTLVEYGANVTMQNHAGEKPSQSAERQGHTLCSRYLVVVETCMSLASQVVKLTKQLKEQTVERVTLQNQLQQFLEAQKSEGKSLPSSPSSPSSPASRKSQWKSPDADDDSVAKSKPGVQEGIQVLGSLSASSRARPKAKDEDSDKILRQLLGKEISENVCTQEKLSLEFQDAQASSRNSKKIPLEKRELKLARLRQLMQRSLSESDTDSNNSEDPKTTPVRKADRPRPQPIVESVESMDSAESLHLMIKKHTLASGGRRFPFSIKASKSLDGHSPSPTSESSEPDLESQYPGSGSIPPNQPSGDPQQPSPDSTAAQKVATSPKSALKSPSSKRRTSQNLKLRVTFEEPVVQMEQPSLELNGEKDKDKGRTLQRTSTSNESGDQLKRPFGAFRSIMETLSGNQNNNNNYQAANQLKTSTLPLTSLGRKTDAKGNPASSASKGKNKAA
B5: RAC-alpha serine/threonine-protein kinase (Homo sapiens), P31749 (parent)
chain: B1 chain
partner: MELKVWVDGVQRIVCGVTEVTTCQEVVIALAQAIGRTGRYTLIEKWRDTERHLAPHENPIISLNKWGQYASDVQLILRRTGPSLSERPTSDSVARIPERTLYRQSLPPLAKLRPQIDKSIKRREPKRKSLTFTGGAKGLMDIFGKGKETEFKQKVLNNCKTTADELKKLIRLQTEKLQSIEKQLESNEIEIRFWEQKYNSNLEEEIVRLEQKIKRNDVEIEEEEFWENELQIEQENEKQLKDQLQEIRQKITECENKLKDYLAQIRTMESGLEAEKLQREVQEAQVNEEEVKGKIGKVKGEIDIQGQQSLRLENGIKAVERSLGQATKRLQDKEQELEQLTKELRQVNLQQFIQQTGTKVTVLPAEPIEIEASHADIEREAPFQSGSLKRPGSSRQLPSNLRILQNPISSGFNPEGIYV
B6: RAC-alpha serine/threonine-protein kinase (Homo sapiens), P31749 (parent)
chain: B1 chain
partner: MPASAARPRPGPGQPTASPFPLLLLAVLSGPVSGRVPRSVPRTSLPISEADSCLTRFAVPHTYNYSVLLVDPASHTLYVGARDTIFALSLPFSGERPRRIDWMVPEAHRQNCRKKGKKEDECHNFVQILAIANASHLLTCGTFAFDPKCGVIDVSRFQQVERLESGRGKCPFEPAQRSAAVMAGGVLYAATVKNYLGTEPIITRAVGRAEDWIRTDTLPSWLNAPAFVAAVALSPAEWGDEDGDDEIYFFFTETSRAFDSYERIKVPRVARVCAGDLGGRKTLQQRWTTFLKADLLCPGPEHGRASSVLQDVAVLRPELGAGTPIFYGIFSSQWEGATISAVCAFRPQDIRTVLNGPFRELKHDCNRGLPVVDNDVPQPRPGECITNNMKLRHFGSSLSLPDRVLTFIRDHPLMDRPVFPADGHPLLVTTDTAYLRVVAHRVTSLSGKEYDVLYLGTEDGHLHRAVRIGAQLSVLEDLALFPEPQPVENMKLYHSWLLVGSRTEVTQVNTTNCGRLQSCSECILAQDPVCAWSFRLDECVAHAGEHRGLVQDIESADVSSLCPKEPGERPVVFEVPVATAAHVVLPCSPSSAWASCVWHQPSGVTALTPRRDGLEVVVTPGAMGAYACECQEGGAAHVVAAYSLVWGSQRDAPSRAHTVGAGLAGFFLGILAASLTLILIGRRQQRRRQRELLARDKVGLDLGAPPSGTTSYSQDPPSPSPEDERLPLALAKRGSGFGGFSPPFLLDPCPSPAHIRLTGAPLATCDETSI
B7: RAC-alpha serine/threonine-protein kinase (Homo sapiens), P31749 (parent)
chain: B1 chain
partner: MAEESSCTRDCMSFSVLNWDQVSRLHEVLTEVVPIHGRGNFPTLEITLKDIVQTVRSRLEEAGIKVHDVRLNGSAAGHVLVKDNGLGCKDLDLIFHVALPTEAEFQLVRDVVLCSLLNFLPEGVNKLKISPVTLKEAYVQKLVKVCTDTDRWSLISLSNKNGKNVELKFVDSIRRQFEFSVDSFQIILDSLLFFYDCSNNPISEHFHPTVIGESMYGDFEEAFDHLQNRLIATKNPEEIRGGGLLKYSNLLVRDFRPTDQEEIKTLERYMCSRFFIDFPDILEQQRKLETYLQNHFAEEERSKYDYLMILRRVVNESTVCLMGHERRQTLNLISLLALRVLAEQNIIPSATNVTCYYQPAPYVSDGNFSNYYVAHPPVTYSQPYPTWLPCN
B8: RAC-alpha serine/threonine-protein kinase (Homo sapiens), P31749 (parent)
chain: B1 chain
partner: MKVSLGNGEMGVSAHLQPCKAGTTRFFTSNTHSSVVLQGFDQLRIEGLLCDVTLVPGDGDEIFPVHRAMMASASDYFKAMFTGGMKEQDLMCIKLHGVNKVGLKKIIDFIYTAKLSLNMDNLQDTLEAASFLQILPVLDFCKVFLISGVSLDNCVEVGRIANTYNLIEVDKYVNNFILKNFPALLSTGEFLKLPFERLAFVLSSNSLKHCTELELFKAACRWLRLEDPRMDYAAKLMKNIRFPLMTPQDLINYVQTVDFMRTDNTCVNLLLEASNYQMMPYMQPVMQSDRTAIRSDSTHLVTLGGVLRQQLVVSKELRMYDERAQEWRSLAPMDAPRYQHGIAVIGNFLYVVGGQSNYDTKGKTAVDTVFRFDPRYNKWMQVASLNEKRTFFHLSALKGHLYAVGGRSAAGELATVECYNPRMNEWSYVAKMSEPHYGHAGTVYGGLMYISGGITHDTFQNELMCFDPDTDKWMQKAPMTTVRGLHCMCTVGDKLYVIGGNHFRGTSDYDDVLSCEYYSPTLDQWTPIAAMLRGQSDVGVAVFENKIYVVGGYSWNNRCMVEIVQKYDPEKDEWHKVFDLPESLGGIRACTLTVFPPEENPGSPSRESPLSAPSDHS

Variants of: B1
Settings: with ccn6_human CCN6, O95389

| effect of a mutation on the interaction | Variant |
| --- | --- |
| causing an interaction | E17K |

Variants of: B1
Settings: with ccn6_human CCN6, O95389
Remark: another data set of the same source

| effect of a mutation on the interaction | Variant |
| --- | --- |
| increasing interaction strength | E17K |

Variants of: B2
Settings: with ppara_human PPARA

| effect of a mutation on the interaction | Variant |
| --- | --- |
| causing an interaction | E17K |

Variants of: B3
Settings: with nox4_human NOX4, Q9NPH5

| effect of a mutation on the interaction | Variant |
| --- | --- |
| causing an interaction | E17K |

Variants of: B4
Settings: with sncap_human SNCAIP

| effect of a mutation on the interaction | Variant |
| --- | --- |
| causing an interaction | E17K |

Variants of: B5
Settings: with rasf8_human RASSF8, Q8NHQ8

| effect of a mutation on the interaction | Variant |
| --- | --- |
| causing an interaction | E17K |

Variants of: B6
Settings: with sem4f_human SEMA4F

| effect of a mutation on the interaction | Variant |
| --- | --- |
| causing an interaction | E17K |

Variants of: B7
Settings: with tet5c_human TENT5C

| effect of a mutation on the interaction | Variant |
| --- | --- |
| causing an interaction | E17K |

Variants of: B8
Settings: with klhl9_human KLHL9, Q9P2J3

| effect of a mutation on the interaction | Variant |
| --- | --- |
| causing an interaction | E17K |
